uPA generation = cell surface uPA generation inhibition; cell surface uPA generation assay, qHTS; Potency, µM (highest dose often 38.3 µM), usual class: inhibitors; 330,000 tested, 0.31% active; AID 540303; active = well fitted inhibition curve with a large enough effect; inconclusive = small, poorly fitted or top-dose-only effect; inactive = no such curve, though single readings can be large or run the other way; tested in mouse RAW 264.7 cells; note: nearly all actives have a fitted effect of over 55% in size
TDP1 block = blocks human tyrosyl-DNA phosphodiesterase 1 | recombinant TDP1, AlphaScreen DNA substrate cleavage | AID 485290 | Potency, µM (series often up to 130 µM), most hits filed as inhibitors | Q9NUW8 | 350,000 tested, 0.28% active; note: nearly all actives have a fitted effect of over 40% in size
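Compounds were preincubated with Tdp1 (1 nM final) for 15 min at room temperature before substrate (15 nM final) started a 5 min reaction; beads (10 ug/ml final) were then added for 10 min before AlphaScreen detection.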
DT40 TDP1 CPT = growth inhibition of DT40 Tdp1-/-;hTDP1 cells with camptothecin (screen for TDP1 inhibitors). chicken DT40 Tdp1-/-;hTDP1 cells + 20 nM CPT, ATP luminescence, 48 h. 420,000 tested, 12% active. AID 686979. Potency, µM (highest dose often 46.2 µM), most hits filed as inhibitors; note: nearly all actives have a fitted effect of over 55% in size
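Cell growth measured by CellTiter-Glo luminescence after a minimum 48 h, 37 C compound exposure with 20 nM CPT in Tdp1-knockout DT40 cells stably expressing hTDP1, seeded 400/well; qHTS titration format.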
DT40 TDP1 no CPT = qHTS for Inhibitors of human tyrosyl-DNA phosphodiesterase 1 (TDP1): qHTS in cells in absence of CPT; DT40 Tdp1-/- hTDP1 cells, no CPT, ATP luminescence, 48 h; Potency, µM (doses to about 46.2 µM), usual class: inhibitors; 420,000 tested, 15% active; note: nearly all actives have a fitted effect of over 55% in size
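Readout: luminescence from CellTiter-Glo after 30 min in the dark at RT. Cells: DT40 Tdp1-/- with stable hTDP1, 400/well. Exposure: compounds alone, ≥48 hr, 37 °C.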
miR-21 reporter = miR-21 reporter, rising signal | 340,000 tested, under 10 active | AID 2288 | HeLa miR-21 FLuc reporter, luciferase, 48 h | Potency, µM (titrated, usually from 38.3 µM); active = well fitted rising curve with a large enough effect; inconclusive = small, poorly fitted or top-dose-only effect; inactive = no such curve, though single readings can be large or run the other way;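 further: miR-21 action dims this reporter so a rising signal means less miR-21 action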
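HeLa cells stably expressing CMV-driven firefly luciferase with a downstream miR-21 binding sequence, endogenously expressing miR-21, were treated with titrations (up to about 40uM final) for 48 hours at 37 degree Celsius. Luciferase luminescence was read after lysis.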
Numbers stand for hits; – = inactive; ? = inconclusive; · = not tested or not shown; [ ] = another dose, or the depositor's remark. Sampled rows, rich in hits. Any-hit rate of the full collection: about 16%. Unless noted, calls come from the whole dose curve; as a rule, active = well fitted curve in the direction sought with a large enough effect; inconclusive = small, poorly fitted or top-dose-only effect, or another doubt; inactive = no such curve, though single readings can be large; an effect the other way counts as inactive or inconclusive.

SMILES | uPA generation | TDP1 block | DT40 TDP1 CPT | DT40 TDP1 no CPT | miR-21 reporter
COc1ccc2nc(NC(=O)CCc3cc(OC)c(OC)c(OC)c3)sc2c1 | – | – | ? | 21µM | –
COc1ccc2sc(NC(=O)CC(C)C)nc2c1 | – | – | ? | – | –
COc1ccc2nc(NC(=O)CCn3cccc3)sc2c1 | – | – | – | – | –
COC(=O)Cn1c(-c2ccc(OC)cc2)c(-c2ccc(OC)cc2)nnc1=O | – | · | – | – | –
COc1ccccc1-c1cc2nc(C)c(CCC(=O)NC(C)CCc3ccco3)c(C)n2n1 (stereo not drawn) | – | – | 23µM | 21µM | –
Cc1nc2c(-c3ccccc3)c(C)nn2c(C)c1CCC(=O)NC(C)CCc1ccco1 (stereo not drawn) | – | – | 12µM | 9.2µM | –
COC(=O)c1ccc(NC(=O)CC2C(=O)N(c3cccc(C)c3)C(=O)N2C2CCCC2)cc1 (stereo not drawn) | · | – | ? | ? | –
CC(=O)c1ccc(NC(=O)CN2C(=O)/C(=C/C(C)=C/c3ccccc3)SC2=S)cc1 | – | – | – | ? | –
O=C(CCCN1C(=O)/C(=C/c2cccs2)SC1=S)Nc1cccc(O)c1 | – | · | 21µM | 16µM | –
O=C(CCCN1C(=O)/C(=C/c2cccs2)SC1=S)NNC(=O)c1ccc(F)cc1 | – | – | 26µM | ? | –
Cc1ccc(/C=C2/SC(=S)N(CCCC(=O)Nc3ccc(O)cc3)C2=O)cc1 | – | · | ? | 23µM | ?
CC(/C=C1\SC(=S)N(CCC(=O)Nc2ccc(O)cc2)C1=O)=C\c1ccccc1 | – | – | 18µM | 18µM | –
CCc1nc2ccc(C(=O)N(CC)CCN(C)C)cn2c1N(CC)CCOC | · | · | – | – | ·
COc1ccc(C(=O)COC(=O)c2cc3ccccc3oc2=O)c(OC)c1 | – | – | – | – | ·
COc1cc(/C=C2\SC(=S)N(NC(=O)c3ccc(O)c(OC)c3)C2=O)ccc1O | – | · | – | – | –
Cc1ccc(/C=C2/SC(=S)N(CC(=O)Nc3ncc(Cc4ccc(C)cc4)s3)C2=O)cc1 | – | – | 23µM | 12µM | –
O=C(CCCN1C(=O)/C(=C\c2ccccc2)SC1=S)Nc1ccc(O)cc1 | – | – | ? | 15µM | ?
COc1cc(/C=C2\SC(=S)N(NC(=O)c3cccc(O)c3)C2=O)ccc1O | – | · | 16µM | 23µM | –
COc1cc(/C=C2\SC(=S)N(CCC(=O)Nc3cccc(O)c3)C2=O)cc(OC)c1OC | – | · | ? | 16µM | –
Cc1ccc(/C=C2\SC(=S)N(CC(=O)Nc3ncc(Cc4ccccc4Cl)s3)C2=O)cc1 | · | – | · | · | –
CC(C)(C)CN1C(=O)C(=O)NC[C@@H]1CCCCN | – | · | – | – | ·
CCOc1ccc(C(=O)C(C)OC(=O)CN2C(=O)NC(C)(C)C2=O)cc1 (stereo not drawn) | – | – | – | ? | ·
CC(=C/C=C/C(C)=C/C=C/C=C(C)/C=C/C=C(C)/C=C/C(=O)O)/C=C/C(=O)O | · | – | · | · | ·
Cc1ccc(NC(=S)N2CCN(Cc3ccccc3)CC2)c(C)c1 | – | – | ? | ? | –
COc1cc(C(=O)N(Cc2ccc(N(C)C)cc2)CC2CCCO2)cc(OC)c1OC (stereo not drawn) | · | – | – | ? | –
SMILES | uPA generation | TDP1 block | DT40 TDP1 CPT | DT40 TDP1 no CPT | miR-21 reporter
COc1cc(S(=O)(=O)N2CCCCC2)ccc1NC(=O)/C=C/c1ccccc1 | · | – | ? | ? | –
Cc1ccc(/C=C2\SC(=S)N(CCCC(=O)NC3CCCC3)C2=O)cc1 | – | – | – | 18µM | ?
Cc1ccc(/C=C2\SC(=S)N(CCCC(=O)NNC(=O)c3ccccc3O)C2=O)cc1 | – | – | ? | 18µM | ?
O=C(CCCN1C(=O)/C(=C/c2ccccc2)SC1=S)Nc1cccc(O)c1 | – | – | 18µM | 23µM | –
O=C(CCN1C(=O)/C(=C\c2ccc(F)cc2)SC1=S)Nc1ccc(O)cc1 | – | – | – | 23µM | –
Cc1ccc(/C=C2\SC(=S)N(CCCC(=O)N3CCOCC3)C2=O)cc1 | – | – | ? | ? | –
Fc1ccc(CSc2nnc(-c3ccccn3)o2)cc1 | ? | · | – | – | –
CN(C)c1ccc(/C=N/NC(=O)CNC(=O)c2ccco2)cc1 | – | – | – | – | –
CC(=O)Nc1cccc(C(=O)N2CCN(S(=O)(=O)c3ccc4ccccc4c3)CC2)c1 | – | · | – | – | –
CN1C(=O)C2(N=c3ccccc3=N2)c2ccccc21 | – | – | ? | 15µM | –
CN1C(=O)C2(OCC(C)([N+](=O)[O-])CO2)c2ccccc21 (stereo not drawn) | – | · | – | – | –
O=S(=O)(N1CCCCC1)N1CCN(c2ccc(F)cc2)CC1 | – | – | – | – | –
CC(C)(C)c1ccc(/C=N/NC(=O)C2CCCC2)cc1 | – | – | 21µM | 13µM | –
O=C(CSc1nccc(-c2ccc(Br)cc2)n1)NCCc1ccccc1 | – | – | ? | – | –
Oc1ccc(Cl)cc1CNCc1ccc(F)c(F)c1 | – | – | ? | – | ·
Cc1ccc(O)c(CNCCNCc2cc(C)ccc2O)c1 | – | · | 10µM | 13µM | ·
CCc1ccc(O)c(CNCCNCc2cc(CC)ccc2O)c1 | ? | – | 23µM | 16µM | ·
Cc1ccc(C)c(O)c1 | · | – | · | · | ·
CCCCNC(=S)Nc1cccc2cnccc12 | – | – | 13µM | 23µM | –
S=C(NCc1ccccc1)Nc1cccc2cnccc12 | – | –[0.0935 µM] | 12µM | 18µM | –
Cc1nc2cnc(N(C)C)nc2n(CCc2ccccc2)c1=O | · | · | 5.2µM | 8.2µM | ·
COc1cccc(Cn2c(=O)c(C)nc3cnc(N(C)C)nc32)c1 | · | · | 16µM | ? | ·
O=C(Nc1ccccc1N1CCCC1)c1cccc(Cl)c1Cl | – | – | – | ? | –
Cc1c(N2CCCC2)cc2c(c1NC(=O)c1ccccc1Cl)C(C)(C)CC2(C)C | – | – | ? | 15µM | –
Cc1nn(C)c2ncc(C(=O)c3ccccc3O)cc12 | – | – | ? | ? | –
SMILES | uPA generation | TDP1 block | DT40 TDP1 CPT | DT40 TDP1 no CPT | miR-21 reporter
Cc1[nH]nc2ncc(C(=O)c3ccccc3O)cc12 | – | – | 10µM | ? | –
Cc1c(NC(=O)c2cnc(Cl)c(Cl)c2)c(=O)n(-c2ccccc2)n1C | – | – | – | – | –
CC1=C(C#N)C(NC(=O)c2cccc(Cl)c2)(C(F)(F)F)C(=O)N1 (stereo not drawn) | – | – | – | – | –
CCOC(=O)c1cccc(-n2c(C)cc(C=O)c2C)c1 | – | – | – | – | –
CCOC(=O)c1c(-n2c(C)cc(C=O)c2C)sc2c1CCCC2 | · | – | 16µM | ? | –
Cc1nn(-c2ccccc2)c(Cl)c1/C=N/Nc1nnc(C)c(=O)[nH]1 | – | – | ? | ? | –
Cc1nn(-c2ccccc2)c(Cl)c1/C=N/NC(=O)CNC(=O)c1ccccc1Cl | – | – | 21µM | ? | –
Cc1nn(-c2ccccc2)c(Cl)c1/C=N/Nc1nc2ccccc2n1C | ? | – | 26µM | 15µM | –
